The values below come from patent US8022215B2, “Fused pyridone M1 receptor positive allosteric modulators” (Merck Sharp & Dohme Corp., priority 2008, dated 2011).

Protein sequences, listed by entry. Tags and fused reporters are not part of them. Lines headed by an entry give the natural chain unless they say otherwise; changes in a name come on top.
UniProt P11229: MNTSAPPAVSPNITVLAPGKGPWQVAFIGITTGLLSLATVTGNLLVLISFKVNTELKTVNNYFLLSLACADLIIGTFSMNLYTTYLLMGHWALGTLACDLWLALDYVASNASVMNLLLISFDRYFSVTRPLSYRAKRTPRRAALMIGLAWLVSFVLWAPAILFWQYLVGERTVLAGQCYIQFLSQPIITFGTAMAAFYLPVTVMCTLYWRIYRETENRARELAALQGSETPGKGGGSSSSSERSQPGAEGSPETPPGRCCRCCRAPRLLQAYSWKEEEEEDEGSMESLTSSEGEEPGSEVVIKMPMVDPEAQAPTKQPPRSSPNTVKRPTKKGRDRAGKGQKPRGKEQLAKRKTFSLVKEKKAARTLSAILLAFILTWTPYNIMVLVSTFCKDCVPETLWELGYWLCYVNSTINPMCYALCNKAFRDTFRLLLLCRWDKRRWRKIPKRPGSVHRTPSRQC

For this experiment, the target named is T1, acetylcholine muscarinic M1 receptor (Homo sapiens, UniProt P11229).
T1 construct: expressed in transfected cells; host or cells: CHOnfat (CHO cells, Geneticin selection)
Description: muscarinic FLIPR assay: potentiation of acetylcholine (EC20)-stimulated intracellular Ca2+ in CHOnfat/hM1 cells. The format is cell-based. As to the method:
The assay studies the effect of one or several concentrations of test compounds on basal or acetylcholine-stimulated Ca^2+ levels using FLIPR.
Compounds are prepared and subjected to a preincubation period of 4 min. Thereafter, a single EC20 concentration of acetylcholine is added to each well (3 nM final). The intracellular Ca^2+ level of each sample is measured and compared to an acetylcholine control to determine any modulatory activity.
Cells: CHOnfat/hM1, hM2, hM3 or hM4 cells are plated 24 hr before the assay at a density of 18,000 cells/well (100 μL) in a 384 well plate. CHOnfat/hM1 and CHOnfat/hM3 Growth Medium: 90% DMEM (Hi Glucose); 10% HI FBS; 2 mM L-glutamine; 0.1 mM NEAA; Pen-Strep; and 1 mg/ml Geneticin, are added. For M2Gqi5CHOnfat and M4Gqi5CHOnfat cells, an additional 600 μg/ml hygromycin is added.
Buffers. […] Dye Loading Buffer: Assay Buffer plus 1% Fetal Bovine Serum and Fluo-4AM/Pluronic Acid Mixture. […] 20% Pluronic Acid Solution stock, with a concentration of 0.04% in Buffer, 0.02% in Assay.
65 μL of 2 mM Fluo-4AM are mixed with 130 μL of 20% Pluronic Acid. […]
After 60 min, the cells are washed three times with 100 μL of buffer, leaving 30 μL of buffer in each well. […] A signal test to check background fluorescence and basal fluorescence signal is performed. […]
The inflection point is calculated from the FLIPR values and is a measure of activity.

On to `O=C(O)c1cn(Cc2ccc(-c3ccccc3)cc2)c2c(c1=O)C(O)CCC2` (centres unmarked) [Example 17, 1-(Biphenyl-4-ylmethyl)-5-hydroxy-4-oxo-1,4,5,6,7,8-hexahydroquinoline-3-carboxylic acid], for which the EC50 turned out to be 450 nM. Regarding `CC(C)Cn1cc(-c2ccc(Cn3cc(C(=O)O)c(=O)c4c3CCCC4O)cc2)cn1` (centres unmarked) [Example 57], the EC50 came to 199 nM.

A word on the EC50: it is the midpoint of the concentration-response curve.
